Source: US12441743B2, “Spiro aromatic ring compound and use thereof” (Etern Biopharma (Shanghai) Co., Ltd., priority 2018, dated 2025)
pIC50: −log10 of the molar value.

System: MV4-11 cells
Test: MV4-11 cell proliferation inhibition experiment (CellTiter-Glo)
Format: cell-based
Settings: Homo sapiens, MV4-11, 72 h, read-out: Cell proliferation inhibition activity
Protocol: The number of living cells in the culture was determined by quantitative determination of intracellular ATP using CellTiter-Glo® Luminescent Cell Viability Assay kit.
In the first step, MV4-11 cells were inoculated into 96-well plates with a density of 2500 cells per well and a volume of 100 μL per well. The plates were placed in 37° C., 5% carbon dioxide incubator overnight.
In the second step, cells were treated with compounds. The compounds to be tested were diluted 3 times, and 8 concentration gradients were set up. Each well was added with a certain volume of DMSO or the compound to be tested, and each concentration was tested in 2 replicates, and the final concentration of DMSO was 0.5%. The plates were placed in 37° C., 5% carbon dioxide incubator for 72 h.
In the third step, cell viability of the control groups and the treatment groups was determined using CellTiter-Glo® Luminescent Cell Viability Assay kit (Promega, G7570). Each well was added with 50 uL CellTiter-Glo. The culture was mixed well, and incubated at room temperature for 10 min. Signals were read using EnSpire (Perkin Elmer). Inhibition percentages (%) were calculated by the following formula:
Inhibition percentage (%)=(1−signal value of compound treatment group/signal value of DMSO treatment group)*100.

pIC50: 5.80
SMILES: CC1(N)CCN(c2cnc(-c3cccc(Cl)c3Cl)c(N)n2)CC1 [SHP099, 6-(4-amino-4-methylpiperidine-1-yl)-3-(2,3-dichlorophenyl)pyrazine-2-amine, reference compound]
